Measured affinities in a library of Ab-14 heavy chain variants

Values reported by Li et al. 2023, doi:10.1038/s41467-023-39022-2 (FLAb copy).

The target is the same throughout: PDVDLGDISGINAS, from the HR2 region of SARS-CoV-2 spike.

Parent: Ab-14, a human scFv built as VH, the linker GGGGSGGGGSGGGGS, VL. Only the CDRs of the heavy chain vary.
VH: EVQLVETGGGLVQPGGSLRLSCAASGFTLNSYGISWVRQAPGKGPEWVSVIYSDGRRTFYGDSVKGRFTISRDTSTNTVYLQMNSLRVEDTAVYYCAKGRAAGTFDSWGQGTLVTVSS
VL: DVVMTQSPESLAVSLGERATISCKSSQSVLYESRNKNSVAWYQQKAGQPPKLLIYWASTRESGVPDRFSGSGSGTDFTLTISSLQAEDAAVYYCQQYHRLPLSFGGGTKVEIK

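This is the validation round: designs drawn from the data on random variants, tested in the same kind of assay. Their group label is 14H_GPLM_Gen (GPLM: also part of the Gaussian process libraries; Gen: genetic algorithm; a sequence that several methods proposed may carry one label only). The assay is AlphaSeq: two haploid yeast populations carry antibody and antigen on their surface. Pairs that bind mate more often; barcode pairs of the diploids are counted by sequencing. Each replicate has its own calibration line, from reference interactions of the BCL2 family. There are six technical replicates.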

Positions count from residue 1 of the parent VH; S53A puts A in place of S. Scale: log10 of Kd in nM, estimated from mating counts; low values are strong binders. "n.d." marks a missing value. The strain was present, yet no cells mated with the target were sequenced in that replicate, which points to weak or no binding. Values of this round are not directly comparable with the first-round values of the same sequences. Nonspecific signal, from three strains lacking the peptide, appeared in 1% of pairings of all heavy chain designs, centred on 2.08 (5% of these signals below 0.84); values are not corrected for it. The control count says in how many pairings with the empty strains this scFv gave a signal, with their mean in brackets. Of ten entries with the parent sequence, four were seen in most replicates (averages 0.34 to 2.37), three in one and three in none, so single entries are noisy. The authors' rule: three or more of the six replicates give a measured affinity, fewer mean a poor binder.

| # | changes | log10 Kd, replicates | empty controls |
|---|---|---|---|
| 1 | S53A+R100E+S107M | -0.32 / -0.51 / -0.19 / -0.15 / -0.66 / -0.30 | 0/18 |
| 2 | G26K+T28S+S31E+G61A+A101T | 0.32 / 0.21 / -0.12 / -0.21 / 0.82 / 0.84 | 1/18 (1.92) |
| 3 | R56I+A101V+S107T | 1.35 / 0.74 / 0.03 / 0.41 / 1.08 / 1.23 | 0/18 |
| 4 | T28S+G61A+S63K+R100K | 0.64 / 0.64 / 0.93 / 0.96 / 0.44 / 0.88 | 1/18 (2.45) |
| 5 | T28S+G61A+S63K+A101T | n.d. / 0.74 / 0.97 / n.d. / 1.30 / n.d. | 0/18 |
| 6 | G61A+S63D+R100E | 0.94 / 0.34 / 0.39 / 0.29 / 0.30 / 0.56 | 2/18 (2.59) |
| 7 | T28E+G61A+A101T | 0.65 / n.d. / n.d. / 0.69 / 0.79 / 1.14 | 0/18 |
| 8 | R56K+G61S+A101V | 0.29 / 0.01 / 0.37 / 0.28 / 0.41 / 0.25 | 1/18 (2.31) |
| 9 | T28S+G61T+S63D+R100Q | n.d. / -0.33 / -1.00 / n.d. / -0.55 / -1.22 | 0/18 |
| 10 | T28S+G61T+R100E | 1.96 / 1.38 / 1.33 / 1.05 / 1.13 / 0.91 | 0/18 |
| 11 | T28S+G61H+R100E | -0.56 / 0.21 / -0.23 / -0.45 / -0.18 / -0.41 | 1/18 (0.99) |
| 12 | R56L+A101T | 1.63 / 2.04 / 1.69 / 1.45 / 1.13 / 2.01 | 0/18 |
| 13 | G61T+R100Q+A101T | n.d. / 1.29 / 1.07 / 1.12 / 2.19 / 1.46 | 0/18 |
| 14 | T28S+S31E+R100Q+S107D | 0.66 / 0.04 / 0.29 / 0.03 / 0.19 / 0.49 | 0/18 |
| 15 | T28D+G61A+S107Q | 0.77 / 0.24 / 1.09 / 0.09 / 0.39 / n.d. | 0/18 |
| 16 | R56C+G61I+R100Q | n.d. / n.d. / n.d. / n.d. / n.d. / n.d. | 0/18 |
| 17 | T28S+S31T+G61K+R100Q | n.d. / n.d. / n.d. / n.d. / 1.03 / n.d. | 0/18 |
| 18 | G61H+R100E | 0.74 / 0.34 / 0.31 / 0.77 / 0.94 / 1.16 | 0/18 |
| 19 | T28E+R100K+A101L | 1.52 / 0.69 / 1.20 / 1.17 / 0.53 / 0.75 | 0/18 |
| 20 | T28S+G61A+A101T+S107A | -0.09 / -0.36 / -0.31 / -0.19 / -0.39 / -0.10 | 2/18 (2.68) |
| 21 | T28S+A101L | 1.08 / 0.62 / 2.00 / 2.44 / 1.11 / 0.73 | 1/18 (1.68) |
| 22 | T28S+G61V+A101T+S107T | n.d. / 1.06 / 1.25 / 1.30 / n.d. / 0.74 | 0/18 |
| 23 | T28S+S31D+S63M+A101T | 0.04 / 0.79 / -0.21 / -0.72 / 0.18 / -0.78 | 0/18 |
| 24 | T28S+S31D+G61M+A101T | 1.23 / 0.50 / 0.57 / 0.12 / 0.73 / 0.66 | 1/18 (1.01) |
| 25 | T28S+R100Q+S107V | n.d. / n.d. / n.d. / n.d. / n.d. / n.d. | 0/18 |
| 26 | T28S+S31N+G61V+A101T | 0.15 / 0.46 / 0.83 / 0.31 / 0.54 / 1.07 | 0/18 |
| 27 | T28D+G61A+R100W | 0.58 / 0.34 / 0.93 / 0.81 / 0.31 / 0.55 | 0/18 |
| 28 | T28D+G61A+R100Q+A101T | 0.48 / 0.12 / -0.07 / 0.06 / -0.02 / -0.07 | 2/18 (2.86) |
| 29 | T28S+N30E+G61A+R100Q | n.d. / -0.12 / 0.84 / n.d. / 1.01 / 0.54 | 0/18 |
| 30 | T28L+S53A+R100K | 0.78 / 0.47 / 0.85 / 0.92 / 0.24 / 1.39 | 0/18 |
| 31 | T28S+G61I+R100E | 0.86 / 0.26 / 0.87 / 0.35 / 0.81 / 0.57 | 0/18 |
| 32 | T28S+R56K+R100Q | 0.48 / 0.26 / 0.20 / 0.28 / 0.50 / 0.29 | 0/18 |
| 33 | N30E+S53A+R100T | 0.39 / 0.80 / 0.39 / 0.74 / 0.87 / 0.99 | 0/18 |
| 34 | T28S+S31E+G61T+A101Y | 0.50 / 0.02 / 0.52 / 0.34 / 0.50 / 0.15 | 1/18 (1.59) |
| 35 | T28S+G61V+R100S+A101T | n.d. / -0.49 / 0.08 / 1.29 / 0.52 / -0.34 | 0/18 |
| 36 | T28D+R100K+A101T | 0.94 / -0.19 / -0.56 / -0.77 / -0.70 / -0.01 | 0/18 |

The opening 4 entries, copied out:

changes,"log10 Kd, replicates",empty controls
S53A+R100E+S107M,-0.32 / -0.51 / -0.19 / -0.15 / -0.66 / -0.30,0/18
G26K+T28S+S31E+G61A+A101T,0.32 / 0.21 / -0.12 / -0.21 / 0.82 / 0.84,1/18 (1.92)
R56I+A101V+S107T,1.35 / 0.74 / 0.03 / 0.41 / 1.08 / 1.23,0/18
T28S+G61A+S63K+R100K,0.64 / 0.64 / 0.93 / 0.96 / 0.44 / 0.88,1/18 (2.45)